Reference: patent US20230183748A1, “Use of FOXP3 Enhancers to Modulate Regulatory T Cells” (St. Jude Children's Research Hospital, Inc., priority 2021, published 2023)

Test system: Foxp3 expression in iTreg cells
Experiment: Stability of Foxp3 expression in iTreg cells in vitro
Format: cell-based, mouse
Conditions: without ASC treatment; high levels of IL-2; WT and ΔCNS3 iTreg cells (not ΔCNS0 or ΔCNS0,3); 4 days in fresh media without TGF-β
Method: Treg Cell Induction and Stability Assay. Induction of Treg cell differentiation in vitro was conducted according to established protocols (Feng et al. (2015) Nature 528:132-136; Yue et al. (2016) J. Exp. Med. 213:377-397). Briefly, cell culture plates or dishes were precoated with 1 μg/ml anti-CD3 (Bio X Cell) and anti-CD28 (Bio X Cell) antibodies in PBS at 37° C. for 2 hours and washed with PBS once before cell culture. CD4 Tn cells were grown in complete RPMI1640 supplemented with 100 U/ml recombinant human IL-2 (PeproTech) and 1 ng/ml recombinant human TGF-β (R&D Systems) with or without 0.25 mM ascorbic acid (ASC)-2-phosphate (Sigma) for 4 days.
To assess the stability of Foxp3 expression in vitro, in vitro Treg (iTreg) cells, sorted based on GFP-Foxp3 expression after 4 days of induction, were further cultured on plates coated with both anti-CD3 (1 μg/ml) and anti-CD28 (1 μg/ml) antibodies and either recombinant human IL-2 or 25 μg/ml IL-2 neutralization antibodies (Bio X Cell) for 4 days more. […]
To test whether ΔCNS0,3 could also destabilize Foxp3 expression, the stability of Foxp3 expression was assessed in control and ASC-treated iTreg cells, which stabilize Foxp3 expression through Tet-dependent DNA demethylation (Yue et al. (2016) J. Exp. Med. 213:377-397). […]

How did the “iTreg cells in which Foxp3 expression was maintained” value turn out when “IL-2: recombinant human IL-2 (PeproTech) added to T cell culture” was run?
The value was 40%-50%.
